Where “and” joins values, the source holds several entries; their conditions need not be identical. Equal values may be shown once. Only a part is listed here, and it is no random draw.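 Negative percent growth values reflect cell death: -40 means 40% of the cells present at the start died, and -100 means all died.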 Calls of active or inactive are those of the source. How the source made its calls: active means growth percent below 10; inactive means the rest.
Tests used:
Assay in all cases: NCI-60 one-dose screen, 48 h (100 = growth as untreated, 0 = no growth, -100 = all killed)
DU-145 prostate = conditions: 10 µM unless noted
K-562 leukemia = conditions: 10 µM unless noted
MALME-3M melanoma = conditions: 10 µM unless noted
MDA-MB-231 breast = conditions: 10 µM unless noted
RXF 393 renal = conditions: 10 µM unless noted
SF-268 CNS = conditions: 10 µM unless noted
SF-295 CNS = conditions: 10 µM unless noted
SF-539 CNS = conditions: 10 µM unless noted
UACC-257 melanoma = conditions: 10 µM unless noted
M14 melanoma = conditions: 10 µM unless noted
HCT-15 colon = conditions: 10 µM unless noted
HT29 colon = conditions: 10 µM unless noted
SNB-75 CNS = conditions: 10 µM unless noted
SNB-19 CNS = conditions: 10 µM unless noted
U251 CNS = conditions: 10 µM unless noted
PC-3 prostate = conditions: 10 µM unless noted
SK-MEL-5 melanoma = conditions: 10 µM unless noted
UACC-62 melanoma = conditions: 10 µM unless noted
LOX IMVI melanoma = conditions: 10 µM
SK-MEL-28 melanoma = conditions: 10 µM unless noted

Measured: growth

COC(=O)C1(C)COP(=O)(Nc2ccccc2)OC1 (stereo not given)
inactive: DU-145 prostate 105% | K-562 leukemia 75.7% | MALME-3M melanoma 92.5% | MDA-MB-231 breast 108% | RXF 393 renal 104% | SF-268 CNS 103% | SF-295 CNS 98.3% | SF-539 CNS 112% | UACC-257 melanoma 109% | M14 melanoma 95.8% | HCT-15 colon 104% | HT29 colon 91.9% | SNB-75 CNS 108% | SNB-19 CNS 96.1% | U251 CNS 101% | PC-3 prostate 116% | SK-MEL-5 melanoma 106% | UACC-62 melanoma 95.8% | LOX IMVI melanoma 94.5% | SK-MEL-28 melanoma 123%

N#CC(C#N)=C(C#N)N(CCCl)CCCl
inactive: DU-145 prostate 104% | K-562 leukemia 98.4% | MALME-3M melanoma 106% | MDA-MB-231 breast 103% | RXF 393 renal 115% | SF-268 CNS 98.9% | SF-295 CNS 108% | SF-539 CNS 102% | UACC-257 melanoma 97.7% | M14 melanoma 106% | HCT-15 colon 106% | HT29 colon 110% | SNB-75 CNS 110% | SNB-19 CNS 99.4% | U251 CNS 100% | PC-3 prostate 98.6% | SK-MEL-5 melanoma 105% | UACC-62 melanoma 91.2% | LOX IMVI melanoma 88.4% | SK-MEL-28 melanoma 106%

COc1cc([N+](=O)[O-])c([N+](=O)[O-])cc1OC
inactive: DU-145 prostate 103% and 108% | K-562 leukemia 80.5% and 86.9% | MALME-3M melanoma 117% and 103% | MDA-MB-231 breast 107% and 115% | RXF 393 renal 118% and 109% | SF-268 CNS 104% | SF-295 CNS 112% and 114% | SF-539 CNS 88.8% and 106% | UACC-257 melanoma 88.8% and 99.7% | M14 melanoma 99.9% and 101% | HCT-15 colon 102% and 110% | HT29 colon 111% | SNB-75 CNS 99.7% and 107% | SNB-19 CNS 103% and 105% | U251 CNS 98.3% and 99.9% | PC-3 prostate 103% | SK-MEL-5 melanoma 99.2% | UACC-62 melanoma 82.5% and 104% | LOX IMVI melanoma 99.7% and 97.6% | SK-MEL-28 melanoma 101% and 113%

O=P(Cl)(N1CCCCCC1)N1CCCCCC1
inactive: DU-145 prostate 112% | K-562 leukemia 103% | MALME-3M melanoma 103% | MDA-MB-231 breast 106% | RXF 393 renal 115% | SF-268 CNS 101% | SF-295 CNS 103% | SF-539 CNS 93.5% | UACC-257 melanoma 101% | M14 melanoma 103% | HCT-15 colon 105% | HT29 colon 102% | SNB-75 CNS 101% | SNB-19 CNS 97% | U251 CNS 101% | PC-3 prostate 93.9% | SK-MEL-5 melanoma 98.7% | UACC-62 melanoma 97.2% | LOX IMVI melanoma 101% | SK-MEL-28 melanoma 101%

Cc1ccc(C)c(C(=O)N(CCCl)CCCl)c1
inactive: DU-145 prostate 104% | K-562 leukemia 112% | MALME-3M melanoma 89.3% | MDA-MB-231 breast 105% | RXF 393 renal 95% | SF-268 CNS 99% | SF-295 CNS 85.3% | SF-539 CNS 104% | UACC-257 melanoma 112% | M14 melanoma 107% | HCT-15 colon 101% | HT29 colon 105% | SNB-75 CNS 97.2% | SNB-19 CNS 103% | U251 CNS 97.9% | PC-3 prostate 102% | SK-MEL-5 melanoma 101% | UACC-62 melanoma 99.7% | LOX IMVI melanoma 105% | SK-MEL-28 melanoma 102%

O=[N+]([O-])N=C1NCCN1
inactive: DU-145 prostate 102% and 104% | K-562 leukemia 89.3% and 112% | MALME-3M melanoma 126% and 64.3% | MDA-MB-231 breast 120% and 100% | RXF 393 renal 102% and 106% | SF-268 CNS 100% and 112% | SF-295 CNS 105% and 114% | SF-539 CNS 112% and 95.7% | UACC-257 melanoma 103% | M14 melanoma 109% and 101% | HCT-15 colon 99.5% and 102% | HT29 colon 107% and 99.2% | SNB-75 CNS 123% and 100% | SNB-19 CNS 117% and 106% | U251 CNS 101% and 97.5% | PC-3 prostate 102% and 91.4% | SK-MEL-5 melanoma 115% and 99.1% | UACC-62 melanoma 124% and 102% | LOX IMVI melanoma 103% and 101% | SK-MEL-28 melanoma 128% and 117%
